Laboratory results taken from publication PMC10578352, “Identification of a Protein Arginine Methyltransferase 7 (PRMT7)/Protein Arginine Methyltransferase 9 (PRMT9) Inhibitor” (Journal of Medicinal Chemistry, 2023).

Amino acid sequences for entries named in this document (tags omitted). Residues count along the entry.
UniProt O14744, 2-637: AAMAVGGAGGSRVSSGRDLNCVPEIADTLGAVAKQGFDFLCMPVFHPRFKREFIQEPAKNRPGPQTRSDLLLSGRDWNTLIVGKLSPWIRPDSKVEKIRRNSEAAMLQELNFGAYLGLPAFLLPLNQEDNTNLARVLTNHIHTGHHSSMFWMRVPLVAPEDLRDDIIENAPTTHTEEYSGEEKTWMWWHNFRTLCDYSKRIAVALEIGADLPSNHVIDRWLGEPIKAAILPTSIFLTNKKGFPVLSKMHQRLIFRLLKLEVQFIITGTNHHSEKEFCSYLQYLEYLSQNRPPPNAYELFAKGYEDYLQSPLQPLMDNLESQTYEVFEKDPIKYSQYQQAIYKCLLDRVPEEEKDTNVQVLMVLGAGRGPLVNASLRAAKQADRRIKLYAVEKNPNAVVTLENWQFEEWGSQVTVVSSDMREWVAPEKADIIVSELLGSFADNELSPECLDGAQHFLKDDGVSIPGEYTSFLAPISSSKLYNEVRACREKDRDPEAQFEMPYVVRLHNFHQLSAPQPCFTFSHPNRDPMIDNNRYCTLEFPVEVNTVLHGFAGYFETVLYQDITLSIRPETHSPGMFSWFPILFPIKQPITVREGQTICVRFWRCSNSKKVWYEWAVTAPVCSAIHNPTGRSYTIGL
UniProt Q99873, 2-371: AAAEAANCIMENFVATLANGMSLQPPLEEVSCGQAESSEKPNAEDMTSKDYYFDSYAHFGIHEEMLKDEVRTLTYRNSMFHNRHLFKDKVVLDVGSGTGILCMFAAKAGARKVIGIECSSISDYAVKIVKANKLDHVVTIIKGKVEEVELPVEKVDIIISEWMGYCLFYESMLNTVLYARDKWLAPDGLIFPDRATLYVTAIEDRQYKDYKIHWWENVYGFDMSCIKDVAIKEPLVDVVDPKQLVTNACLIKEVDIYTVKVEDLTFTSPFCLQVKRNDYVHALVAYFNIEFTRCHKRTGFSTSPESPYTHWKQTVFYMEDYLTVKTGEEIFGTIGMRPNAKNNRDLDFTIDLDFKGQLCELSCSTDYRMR
UniProt O60678, 2-531: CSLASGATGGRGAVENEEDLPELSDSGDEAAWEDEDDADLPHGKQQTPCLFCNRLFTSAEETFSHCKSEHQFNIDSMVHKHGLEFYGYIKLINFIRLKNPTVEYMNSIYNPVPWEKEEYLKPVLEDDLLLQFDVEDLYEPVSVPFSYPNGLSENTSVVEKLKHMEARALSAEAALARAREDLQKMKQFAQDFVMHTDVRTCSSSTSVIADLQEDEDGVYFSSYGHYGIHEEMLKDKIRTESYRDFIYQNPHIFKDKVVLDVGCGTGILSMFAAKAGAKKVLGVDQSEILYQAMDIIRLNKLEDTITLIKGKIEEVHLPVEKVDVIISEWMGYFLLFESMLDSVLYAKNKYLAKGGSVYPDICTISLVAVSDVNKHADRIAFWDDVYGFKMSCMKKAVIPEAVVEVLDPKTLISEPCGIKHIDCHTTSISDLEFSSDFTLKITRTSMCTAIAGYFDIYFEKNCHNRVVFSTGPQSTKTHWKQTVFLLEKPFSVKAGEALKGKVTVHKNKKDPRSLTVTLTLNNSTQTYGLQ
UniProt Q9NR22, 61-394: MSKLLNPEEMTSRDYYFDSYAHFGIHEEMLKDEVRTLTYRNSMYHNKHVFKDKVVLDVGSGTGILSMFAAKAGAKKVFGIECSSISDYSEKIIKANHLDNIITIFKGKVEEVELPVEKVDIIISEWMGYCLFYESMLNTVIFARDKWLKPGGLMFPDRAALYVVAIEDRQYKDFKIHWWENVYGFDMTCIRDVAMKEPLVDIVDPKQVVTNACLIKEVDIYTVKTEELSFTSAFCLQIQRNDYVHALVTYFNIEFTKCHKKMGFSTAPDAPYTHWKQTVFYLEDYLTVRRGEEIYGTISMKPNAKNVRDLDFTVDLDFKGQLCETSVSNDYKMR
UniProt Q96LA8, 2-375: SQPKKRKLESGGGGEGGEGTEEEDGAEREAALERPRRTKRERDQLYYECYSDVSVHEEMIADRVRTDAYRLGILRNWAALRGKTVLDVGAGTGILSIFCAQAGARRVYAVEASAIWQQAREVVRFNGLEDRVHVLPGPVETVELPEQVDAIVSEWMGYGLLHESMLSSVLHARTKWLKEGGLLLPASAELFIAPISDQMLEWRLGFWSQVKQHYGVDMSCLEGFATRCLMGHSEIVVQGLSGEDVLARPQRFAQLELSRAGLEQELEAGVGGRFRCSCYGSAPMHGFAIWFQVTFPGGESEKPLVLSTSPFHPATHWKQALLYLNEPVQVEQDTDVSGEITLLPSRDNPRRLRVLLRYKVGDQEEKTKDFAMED

How the values were obtained:
Type in all cases: biochemical
Conditions in all cases: Figure 2; from IC50 values of ref 31
PRMT5/MEP50 complex = molecular target: T1, PRMT5/MEP50 complex (Homo sapiens, UniProt O14744); experiment: HotSpot radioisotope-based filter assay, PRMT5
T1 construct: residues PRMT5 2–637, C-terminus, and MEP50 2–342, C-terminus; FLAG (N); purchased Reaction Biology Corporation
Method: (§1) Then, ^3H-SAM (final concentration of 1 μM) was delivered into the reaction mixture to initiate the reaction. After incubation for 60 min at 30 °C, the reaction mixture was delivered to filter-paper for detection (as assessed by scintillation). Data were analyzed using Excel and GraphPad Prism 6.0 software (GraphPad Software Inc., San Diego, CA) for IC50 curve fits using sigmoidal dose vs response - variable slope (four parameters) equations.

PRMT1 = molecular target: T2, PRMT1 (Homo sapiens, UniProt Q99873); experiment: HotSpot radioisotope-based filter assay, PRMT1
T2 construct: PRMT1 (residues 2–371, C-terminus); with an N-terminal GST-tag; GST (N); purchased Reaction Biology Corporation
Method: as §1

PRMT3 = molecular target: T3, PRMT3 (Homo sapiens, UniProt O60678); experiment: HotSpot radioisotope-based filter assay, PRMT3
T3 construct: PRMT3 (residues 2–531, C-terminus); with an N-terminal His-tag; His (N); purchased Reaction Biology Corporation
Method: as §1

PRMT4 = molecular target: T4, PRMT4 (Homo sapiens, UniProt Q86X55); experiment: HotSpot radioisotope-based filter assay, PRMT4
T4 construct: PRMT4 (residues 2–608, C-terminus); with an N-terminal GST-tag; GST (N); purchased Reaction Biology Corporation
T4 sequence (Q86X55 2-608): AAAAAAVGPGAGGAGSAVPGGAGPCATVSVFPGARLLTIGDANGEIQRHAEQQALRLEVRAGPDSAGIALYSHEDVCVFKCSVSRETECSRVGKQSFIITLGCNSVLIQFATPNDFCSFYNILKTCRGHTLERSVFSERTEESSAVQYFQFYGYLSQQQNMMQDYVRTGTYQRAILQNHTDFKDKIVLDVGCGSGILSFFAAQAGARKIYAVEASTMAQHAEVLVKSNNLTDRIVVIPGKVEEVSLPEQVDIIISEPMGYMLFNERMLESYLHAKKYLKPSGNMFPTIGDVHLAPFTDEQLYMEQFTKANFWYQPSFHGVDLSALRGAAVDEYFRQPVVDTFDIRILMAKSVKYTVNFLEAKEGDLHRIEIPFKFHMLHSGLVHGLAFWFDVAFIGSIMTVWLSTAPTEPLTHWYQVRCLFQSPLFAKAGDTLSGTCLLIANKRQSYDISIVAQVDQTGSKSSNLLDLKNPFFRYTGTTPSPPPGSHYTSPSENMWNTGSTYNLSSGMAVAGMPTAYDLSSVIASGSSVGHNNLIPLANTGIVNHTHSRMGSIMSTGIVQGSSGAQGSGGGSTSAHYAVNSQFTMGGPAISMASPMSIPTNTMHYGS
Method: as §1

PRMT8 = molecular target: T5, PRMT8 (Homo sapiens, UniProt Q9NR22); experiment: HotSpot radioisotope-based filter assay, PRMT8
T5 construct: (residues 61–394, C-terminus); with C- and N-terminal His-tags; His (N); His (C); purchased Reaction Biology Corporation
Method: as §1

PRMT6 = molecular target: T6, PRMT6 (Homo sapiens, UniProt Q96LA8); experiment: HotSpot radioisotope-based filter assay, PRMT6
T6 construct: PRMT6 (residues 2–375, C-terminus); with an N-terminal GST-tag; GST (N); purchased Reaction Biology Corporation
Method: as §1

SMILES: COC(=O)c1cc(O)c2cc(NC(=O)NCCCCCCNC(=N)NC[C@H]3O[C@@H](n4cnc5c(N)ncnc54)[C@H](O)[C@@H]3O)ccc2c1 [1d]
- selectivity index for PRMT7 over PRMT5 (PRMT5/MEP50 complex): 6 fold
- selectivity index for PRMT7 over PRMT1 (PRMT1): 2 fold
- selectivity index for PRMT7 over PRMT3 (PRMT3): 30 fold
- selectivity index for PRMT7 over PRMT4 (PRMT4): 0.17 fold
- selectivity index for PRMT7 over PRMT8 (PRMT8): 9 fold
- selectivity index for PRMT7 over PRMT6 (PRMT6): 115 fold
